We go through four compounds from PubChem BioAssay AID2517 (National Center for Advancing Translational Sciences (NCATS), 2010).

By UniProt entry, the sequences of proteins in these tests, tags left out.
UniProt P27695, whole entry: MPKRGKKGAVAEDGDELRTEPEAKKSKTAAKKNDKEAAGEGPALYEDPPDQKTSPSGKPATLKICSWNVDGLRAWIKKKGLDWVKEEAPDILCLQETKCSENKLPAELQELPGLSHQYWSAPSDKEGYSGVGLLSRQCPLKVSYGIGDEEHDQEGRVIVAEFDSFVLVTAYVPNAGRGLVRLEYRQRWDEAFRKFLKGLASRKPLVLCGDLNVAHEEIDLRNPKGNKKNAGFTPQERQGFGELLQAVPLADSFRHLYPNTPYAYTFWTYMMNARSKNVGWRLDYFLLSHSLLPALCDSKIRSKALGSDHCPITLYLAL

The structures appear in SMILES notation. Where “and” joins values, the source holds several entries; their conditions need not be identical. Equal values may be shown once. This is a selection; strong and weak results do not stand in their true shares. Results filed as inconclusive are left out. Calls of active or inactive are those of the source. Calls come from the whole dose curve; as a rule, active = well fitted inhibition curve with a large enough effect; inconclusive = small, poorly fitted or top-dose-only effect; inactive = no such curve, though single readings can be large or run the other way.

The experiment deals with DNA repair nuclease/redox regulator APEX1 (Homo sapiens) (UniProt P27695). Nature of the experiment: qHTS Assay for Inhibitors of the Human Apurinic/apyrimidinic Endonuclease 1 (APE1).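 Note: plate controls were vehicle for no effect and reference inhibitor for full effect; nearly all actives have a fitted effect of over 55% in size.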 The note with it: recombinant APE1, TAMRA/BHQ-2 abasic DNA cleavage fluorescence; at 65.8 µM (top of the series). For orientation: Quantitative high-throughput screening tests each substance at several concentrations.
For `CN(CCCl)CCCl`, the activity change, negative = inhibition was inactive: 16.6% and inactive: -7.33%.
For the compound `CCC(=O)N(c1ccccc1)C1(COC)CCN(CCc2cccs2)CC1`, the activity change, negative = inhibition was inactive: 0.664%.
For the compound `CCC(=O)N(c1ccccc1)C1(COC)CCN(CCn2nnn(CC)c2=O)CC1`, the activity change, negative = inhibition is inactive: 2.18%.
For the compound `O=[N+]([O-])C(Cl)(Cl)Cl`, the activity change, negative = inhibition is inactive: -1.54%.
